The values that follow come from patent publication US20200260697A1, “METHODS OF MOUSE CLINICAL TRIAL” (CROWN BIOSCIENCE, INC. (TAICANG), priority 2016, published 2020).

One assay concerns 27 gastric cancer PDXs. Description: MCT of 27 gastric cancer PDXs treated with cetuximab, TGI and AUC ratio versus EGFR expression. Type of assay: in vivo, mouse. As to conditions: the 7 PDXs with high EGFR levels (FPKM around or larger than 20); exception GA2140. The source says: The two starting tumor volumes, V0^(T) and V0^(C), need not to be the same. These two AUCs (area under curve) are illustrated in (FIG. 7A), and the AUC ratio equals kT/kc. If a study stops at different time for the two groups, dT for the drug group and dC for the vehicle group, we need to normalize the AUCs by dT^2 or dC^2. For convenience, we still call the normalized AUC as AUC, and the ratio between the two normalized AUCs as the AUC ratio:
For multiple mice in drug group (nT) and vehicle group (nC), AUCs in each group can be viewed as random samplings from corresponding normal distributions with sizeable standard deviations against the corresponding mean. The two normal distributions can differ in both mean and standard deviation. […]
We previously described a MCT study involving a cohort of 20 gastric PDXs where EGFR overexpression seems associated with positive response to cetuximab PDXs based on TGI type of response endpoint (Zhang L et al., Scientific Reports (2013) 3:2992). […] We calculated TGIs at day 14, and also AUC ratios using full set of data for all 27 PDXs. […] This analysis also supports that AUC is more robust tumor response readout over TGI in MCT and particularly for biomarker discovery. […]

Assay [1] has as its system advanced gastric or esophagogastric junction adenocarcinoma. As to conditions: 7 patients with IHC score greater than ˜200 receiving cetuximab in addition to chemotherapies, cited from earlier work.

As to cetuximab, in the assay with 27 gastric cancer PDXs, the “PDXs with tumor volume reduction under treatment” value was 6/7. In addition, the PFS in assay [1] (19 patients on chemotherapies only: 4.1±3.2 months, p-value=0.03) is 8.1±6.1 months. For the same substance, the OS in assay [1] (19 patients on chemotherapies only: 10.1±7.8 months, p-value=0.02) is given as 19.5±12.0 months.
